# CycPeptMPDB entries from one study

Data: CycPeptMPDB; original report Naylor et al. 2018, doi:10.1021/acs.jmedchem.8b01259.

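The data file gives no further conditions (lipid, pH, time, direction or concentration), and values from different papers need not be comparable. The list need not hold all peptides of the study. Entries at the database's floor value (log10 P of -10) are not listed.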

PAMPA is the parallel artificial membrane permeability assay, which has no cells and reads passive diffusion.
RRCK values come from monolayers of low-efflux MDCK cells.
P is given in units of 10^-6 cm/s (from log10 values with two decimals); larger means faster passage.
Cells with "n/a" have no entry in this list.

| SMILES | PAMPA (10^-6 cm/s) | RRCK (10^-6 cm/s) |
|---|---|---|
| CC(C)C[C@@H]1NC(=O)[C@@H](CC(C)C)NC(=O)[C@H](CC(C)C)NC(=O)[C@@H](CC(C)C)NC(=O)[C@H]2CCCN2C(=O)[C@H](Cc2ccc(O)cc2)NC1=O | n/a | 0.83 |
| CC(C)C[C@@H]1NC(=O)[C@H](CC(C)C)NC(=O)[C@@H](CC(C)C)NC(=O)[C@H]2CCCN2C(=O)[C@H](Cc2ccc(O)cc2)NC(=O)[C@@H](CC(C)C)NC1=O | n/a | 19 |
| CC[C@H](C)[C@@H]1NC(=O)[C@H](Cc2ccccc2)N(C)C(=O)[C@H](Cc2ccccc2)NC(=O)CN(C)C(=O)[C@@H]2CCCN2C(=O)[C@@H](Cc2ccccc2)N(C)C(=O)[C@H](CC(C)C)NC1=O | n/a | 0.29 |
| CC(C)C[C@H]1NC(=O)[C@H]2CCCN2C(=O)[C@H](Cc2ccc(O)cc2)NC(=O)[C@@H](CC(C)C)NC(=O)[C@@H](CC(C)C)NC(=O)[C@@H](CC(C)C)NC1=O | n/a | 0.49 |
| CC(C)C[C@@H]1NC(=O)[C@@H](CC(C)C)NC(=O)[C@@H](CC(C)C)NC(=O)[C@@H](CC(C)C)NC(=O)[C@H]2CCCN2C(=O)[C@H](Cc2ccc(O)cc2)NC1=O | n/a | 0.36 |
| CC[C@H]1C(=O)N[C@@H](CC(C)C)C(=O)N2CCC[C@@H]2C(=O)N(C)[C@@H](Cc2ccccc2)C(=O)N[C@@H](CC(C)C)C(=O)N(C)[C@H](C)C(=O)N1C | 13 | n/a |
| CC(C)C[C@@H]1NC(=O)[C@@H](CC(C)C)NC(=O)[C@@H](CC(C)C)NC(=O)[C@H]2CCCN2C(=O)[C@H](Cc2ccc(O)cc2)NC(=O)[C@@H](CC(C)C)NC1=O | n/a | 4.1 |
| CC(C)C[C@@H]1NC(=O)[C@H](CC(C)C)NC(=O)[C@@H](CC(C)C)NC(=O)[C@@H](CC(C)C)NC(=O)[C@H]2CCCN2C(=O)[C@H](Cc2ccc(O)cc2)NC1=O | n/a | 0.95 |
| CC(C)C[C@@H]1NC(=O)[C@H](CC(C)C)NC(=O)[C@@H](CC(C)C)NC(=O)[C@H]2CCCN2C(=O)[C@H](Cc2ccc(O)cc2)NC(=O)[C@H](CC(C)C)NC1=O | n/a | 2.8 |
| CC(C)C[C@@H]1NC(=O)[C@@H](CC(C)C)NC(=O)[C@H]2CCCN2C(=O)[C@H](Cc2ccc(O)cc2)NC(=O)[C@@H](CC(C)C)NC(=O)[C@@H](CC(C)C)NC1=O | n/a | 1.9 |

The first 2 entries again:

| SMILES | PAMPA (10^-6 cm/s) | RRCK (10^-6 cm/s) |
|---|---|---|
| CC(C)C[C@@H]1NC(=O)[C@@H](CC(C)C)NC(=O)[C@H](CC(C)C)NC(=O)[C@@H](CC(C)C)NC(=O)[C@H]2CCCN2C(=O)[C@H](Cc2ccc(O)cc2)NC1=O | n/a | 0.83 |
| CC(C)C[C@@H]1NC(=O)[C@H](CC(C)C)NC(=O)[C@@H](CC(C)C)NC(=O)[C@H]2CCCN2C(=O)[C@H](Cc2ccc(O)cc2)NC(=O)[C@@H](CC(C)C)NC1=O | n/a | 19 |